Source: ChEMBL document CHEMBL1687701, “Discovery of N-Aryl Piperazines as Selective mGlu(5) Potentiators with Efficacy in a Rodent Model Predictive of Anti-Psychotic Activity” (ACS Med Chem Lett, 2010)

Chains of the proteins cited; added tags and fusions are not shown.
UniProt P31424, whole entry: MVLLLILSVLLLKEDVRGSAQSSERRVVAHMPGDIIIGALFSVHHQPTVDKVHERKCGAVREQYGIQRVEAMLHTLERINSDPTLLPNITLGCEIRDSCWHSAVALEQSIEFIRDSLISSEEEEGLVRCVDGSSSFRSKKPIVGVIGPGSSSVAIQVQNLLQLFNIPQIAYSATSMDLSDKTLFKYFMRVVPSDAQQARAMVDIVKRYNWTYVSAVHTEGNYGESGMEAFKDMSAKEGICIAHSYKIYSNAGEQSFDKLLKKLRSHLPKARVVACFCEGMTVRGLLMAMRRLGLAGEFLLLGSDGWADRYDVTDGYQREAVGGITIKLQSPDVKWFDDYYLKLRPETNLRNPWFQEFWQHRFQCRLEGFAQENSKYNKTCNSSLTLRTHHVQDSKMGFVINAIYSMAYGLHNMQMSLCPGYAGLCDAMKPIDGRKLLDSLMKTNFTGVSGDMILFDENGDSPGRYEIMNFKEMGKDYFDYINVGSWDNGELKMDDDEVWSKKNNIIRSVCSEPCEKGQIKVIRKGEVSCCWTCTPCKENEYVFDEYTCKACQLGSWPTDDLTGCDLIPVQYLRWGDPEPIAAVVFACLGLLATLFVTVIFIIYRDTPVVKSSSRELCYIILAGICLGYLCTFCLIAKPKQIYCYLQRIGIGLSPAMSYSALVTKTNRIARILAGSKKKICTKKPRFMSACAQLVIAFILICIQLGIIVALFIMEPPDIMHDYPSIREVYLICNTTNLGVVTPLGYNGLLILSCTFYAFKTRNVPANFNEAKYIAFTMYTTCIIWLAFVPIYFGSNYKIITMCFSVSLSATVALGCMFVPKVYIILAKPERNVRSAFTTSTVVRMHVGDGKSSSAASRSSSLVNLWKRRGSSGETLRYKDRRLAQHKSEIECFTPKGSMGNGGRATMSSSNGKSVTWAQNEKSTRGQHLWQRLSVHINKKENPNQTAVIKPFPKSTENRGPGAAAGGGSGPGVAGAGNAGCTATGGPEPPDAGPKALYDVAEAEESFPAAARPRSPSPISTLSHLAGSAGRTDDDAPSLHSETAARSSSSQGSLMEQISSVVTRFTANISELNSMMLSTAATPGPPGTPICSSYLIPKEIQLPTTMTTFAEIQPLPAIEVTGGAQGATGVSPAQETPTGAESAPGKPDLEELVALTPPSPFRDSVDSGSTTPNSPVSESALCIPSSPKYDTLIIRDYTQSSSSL

Biological target: Metabotropic glutamate receptor 5 (Rattus norvegicus, UniProt P31424)
Experiment: Negative allosteric modulation at rat mGluR5 receptor

IC50: 540 nM
Ki: 440 nM
SMILES: O=C(N1CCN(c2nccs2)CC1)C12CC3CC(CC(C3)C1)C2
